Test results as given in US20100233231A1, “USE OF CRYOGENIC PROCESSING TO OBTAIN A SUBSTANTIALLY-THICKENED FORMULATION” (priority 2009, published 2010).

Experiment: Consistency and homogeneity of the formulation after cryo-processing (observation)
Type: physicochemical
Details: Example 4: 30% in 100% fish oil, 4 cycles, 20 impacts per second
Description: Fish oil was cured to a film with the use of heat.
It was processed in a Spex Certiprep cryogrinder for 8 cycles, each cycle lasting 2.0 minutes and with a 2.0 minute between-cycle cool down to maintain the system at cryogenic temperatures.

With “d-alpha-tocopheryl polyethylene glycol succinate [Vitamin E TPGS]” the “consistency of resulting formulation” value was “highly viscous upon standing and was extremely shear thinning”.
